Test results reported in US9795646B2, “Boswellia oil, its fractions and compositions for enhancing brain function” (LAILA NUTRACEUTICALS, priority 2010, dated 2017).

Amino acid sequences for entries named in this document (tags omitted). Residues count along the entry.
UniProt P22303, 32-614, species assumed: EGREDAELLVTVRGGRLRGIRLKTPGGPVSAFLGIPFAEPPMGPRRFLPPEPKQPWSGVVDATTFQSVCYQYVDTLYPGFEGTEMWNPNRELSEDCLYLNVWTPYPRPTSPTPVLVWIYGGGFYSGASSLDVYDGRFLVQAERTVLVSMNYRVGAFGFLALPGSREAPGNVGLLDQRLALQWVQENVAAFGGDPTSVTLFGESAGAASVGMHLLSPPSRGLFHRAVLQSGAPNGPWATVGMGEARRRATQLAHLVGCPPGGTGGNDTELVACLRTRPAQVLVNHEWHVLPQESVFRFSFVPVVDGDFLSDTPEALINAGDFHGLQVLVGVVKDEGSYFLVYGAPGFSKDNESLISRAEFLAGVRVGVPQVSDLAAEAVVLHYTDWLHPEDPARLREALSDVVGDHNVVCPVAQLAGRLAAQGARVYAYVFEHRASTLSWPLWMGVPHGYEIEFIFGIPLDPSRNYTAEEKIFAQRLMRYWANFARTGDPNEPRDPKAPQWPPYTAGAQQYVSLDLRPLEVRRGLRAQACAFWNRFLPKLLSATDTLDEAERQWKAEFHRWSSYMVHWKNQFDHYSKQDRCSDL

Biological target: Acetylcholinesterase (Homo sapiens, UniProt P22303)
Assay: Acetylcholinesterase inhibitory activity, in vitro enzymatic assay (Ellman method)
Type: biochemical

Compound: CN(C)C(=O)Oc1cccc([N+](C)(C)C)c1 [Neostigmin]
- % Inhibition at concentrations of 10 ng (Table 2): 25.17%
- % Inhibition at concentrations of 10 ng (Table 3): 25.17%
- % Inhibition at concentrations of 25 ng (Table 2): 37.19%
- % Inhibition at concentrations of 25 ng (Table 3): 37.19%
- % Inhibition at concentrations of 50 ng (Table 2): 54.69%
- % Inhibition at concentrations of 50 ng (Table 3): 54.69%
